# Experimental data: patent publication US5017577A, “Methods for treating viral infection” (Burroughs Wellcome Co., priority 1989, dated 1991)
# Amino acid sequences for entries named in this document (tags omitted).
# UniProt P47745, whole entry: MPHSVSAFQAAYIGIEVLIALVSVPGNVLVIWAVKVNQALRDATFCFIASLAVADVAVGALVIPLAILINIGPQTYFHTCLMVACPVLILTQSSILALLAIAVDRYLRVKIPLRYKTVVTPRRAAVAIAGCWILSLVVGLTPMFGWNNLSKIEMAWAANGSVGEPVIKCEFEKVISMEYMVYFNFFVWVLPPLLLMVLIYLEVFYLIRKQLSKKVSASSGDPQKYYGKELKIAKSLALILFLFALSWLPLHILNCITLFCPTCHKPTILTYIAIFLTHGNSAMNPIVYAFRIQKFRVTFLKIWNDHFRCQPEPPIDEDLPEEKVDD
# Biological target: T1, adenosine (purine) receptors (Cavia porcellus, UniProt P47745)
# T1 construct: Ilea were removed from sacrificed guinea pigs; from tissue; host or cells: guinea pig ileum
# Experiment: Guinea pig ileum twitch test: purine receptor antagonism against 2-chloroadenosine (Schild regression)
# Conditions: agonist 2-chloroadenosine
# Procedure: Accordingly, a representative number of compounds of the present invention were tested for their ability to antagonise the purine receptors using the guinea pig ileum test system.
# Ilea were removed from sacrificed guinea pigs and placed in organ baths containing oxygenated Krebs-Henseleit buffer. After equilibration, the ilea were stimulated to contract (twitch contraction) using an electrical field-stimulus of 0.1 Hz, 0.05 ms duration and maximal voltage. Under these conditions, the twitch contraction results from the release of acetylcholine.
# Concentration response curves to the purine agonist, 2-chloroadenosine, were determined first in the absence and then in the presnce of multiple concentrations of the compounds of the invention. One concentration of each compound was used per tissue. Quantification of purine receptor antagonism was accomplished using the Schild regression technique, i.e. plots of log (dose-ratio-l) vs log compound concentration, and the pA2 determined by regression of the data points to the x-intercept, where log (dose-ratio-l) is zero.
structure (smiles),measurement,value
"Cn1c(=O)c2[nH]cnc2n(C)c1=O [THEOPHYLLINE, 1,3-dimethylxanthine, reference compound]",pA2 guinea pig ileum (slope): slope of Schild regression,1.1
